Biological target: Mu-type opioid receptor (Homo sapiens, UniProt P35372)
Assay: Agonist activity at human mu opioid receptor stably transfected in CHO cells by cAMP assay
Type: functional, cell-based

Amino acid sequences for entries named in this document (tags omitted).
UniProt P35372, whole entry: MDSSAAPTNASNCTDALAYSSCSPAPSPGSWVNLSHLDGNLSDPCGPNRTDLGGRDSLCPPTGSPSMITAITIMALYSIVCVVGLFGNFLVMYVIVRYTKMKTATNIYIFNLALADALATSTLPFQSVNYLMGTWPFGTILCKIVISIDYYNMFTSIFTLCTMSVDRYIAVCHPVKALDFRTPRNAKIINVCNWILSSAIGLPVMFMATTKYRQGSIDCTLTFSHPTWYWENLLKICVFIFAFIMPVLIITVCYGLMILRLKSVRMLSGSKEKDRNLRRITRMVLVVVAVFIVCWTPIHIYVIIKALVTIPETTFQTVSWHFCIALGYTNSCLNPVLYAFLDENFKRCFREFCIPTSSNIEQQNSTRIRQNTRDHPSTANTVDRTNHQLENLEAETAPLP

Row | Compound | EC50 [µM]
1 | C[C@@H](CC(=O)NC[C@H](Cc1ccc(O)cc1)N(C)C)c1ccccc1 | 0.0075
2 | C[C@H](CC(=O)NC[C@H](Cc1ccc(O)cc1)N(C)C)c1ccccc1 | 0.029
3 | C[C@@H](CC(=O)NC[C@H](Cc1c(F)cc(O)cc1F)N(C)C)c1ccccc1 | 0.0145

— ChEMBL document CHEMBL5365409, “Novel series of tunable µOR modulators with enhanced brain penetration for the treatment of opioid use disorder, pain and neuropsychiatric indications” (Bioorg Med Chem Lett, 2023)
